Assays:
AKR1C3 [1] = target: T1, AKR1C3 (Homo sapiens, UniProt P42330); assay: Inhibition of Δ^4-AD reduction to testosterone by recombinant AKR1C3; type: biochemical
T1 sequence (P42330 1-323): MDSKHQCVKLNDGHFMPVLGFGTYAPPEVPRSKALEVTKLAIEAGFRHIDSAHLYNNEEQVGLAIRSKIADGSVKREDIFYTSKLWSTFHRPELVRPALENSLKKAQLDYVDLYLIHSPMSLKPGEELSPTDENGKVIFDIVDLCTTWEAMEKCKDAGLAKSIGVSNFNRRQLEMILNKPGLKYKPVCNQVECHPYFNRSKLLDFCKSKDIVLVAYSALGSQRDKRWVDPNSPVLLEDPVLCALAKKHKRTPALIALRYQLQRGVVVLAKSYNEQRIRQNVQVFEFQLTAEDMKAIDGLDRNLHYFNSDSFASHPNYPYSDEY

AKR1C3 [2] = target: T1, AKR1C3; assay: Inhibition of testosterone production in LNCaP-AKR1C3 cells; type: cell-based; details: for Percent Testosterone Formed: LNCaP-AKR1C3 cells, 100 nM [^3H]-4-androstene-3,17-dione, 48 h

COc1ccc2[nH]c(C(=O)N3CCC(CC(C)(C)O)CC3)cc2c1 [ASP9521, 1-(-{1-[(5-methoxy-1H-indol-2-yl)carbonyl]piperidin-4-yl}-2-methylpropan-2-ol), reference compound]
Pattern of inhibition of Δ^4-AD reduction (AKR1C3 [1]): competitive inhibition | Percent Testosterone Formed (AKR1C3 [2]; 10 μM inhibitor): 12.24% | Percent Testosterone Formed (AKR1C3 [2]; 30 μM inhibitor): 0% | inhibition at 30 µM (AKR1C3 [2]; read-out: Percent inhibition of testosterone production): 100%
